Test results from patent US20050100561A1, “Use of topical compositions for the control of microbial diseases of the nail” (priority 2002, published 2005).

Test system: onychomycosis
Assay: Treatment of onychomycosis with topical copper silicate (cream or solution), patient trial
Description: Subjects, not already receiving anti-fungal treatment, were assessed for clinical diagnosis of onychomycosis and photographs and nail clippings were taken. Those testing positive for onychomycosis were admitted to the trial.
The anti-fungal composition (cream or solution) was applied to the infected nail twice daily for the duration of the treatment.
Estimates of the nail area involved were made during clinical visits and photographs were taken. Nail clippings were collected for KOH and dermatophyte culture. […] Results
The results presented hereunder are interim results of a 12 month study. Patients entered the trial and commenced their treatment at different dates. […] Patients were assessed at 0 (commencement). 6 weeks and 12 weeks.

## copper silicate
Continued trial, 26 weeks treatment and 26 weeks post-treatment
  Adverse reactions: No adverse reactions have been reported
Interim results, up to 12 weeks of treatment
  Adverse reactions: No adverse reactions were reported
